{"source": "patent US20220242812A1", "about": "“SWELL1-LRRC8 COMPLEX MODULATORS” (Washington University, priority 2019, published 2022)", "key": {"[1]": {"test": "In vivo pharmacokinetics in mice", "protocol": "Male C57/BL6 mice were used in the study and assessed for a single dose (5 mg/kg) administration. The compounds were prepared in Cremaphor for i.p. and p.o dose routes and in 5% ethanol, 10% Tween-20 and water mix for i.v. route at a final concentration of 1 mg/ml. […] The blood samples were collected in tubes with K2 EDTA anticoagulant and further processed to collect plasma by centrifugation at 3500 rpm at 5° C. for 10 min Samples were further processed in LC/MS to determine the concentration of the compounds. Non-compartmental analysis was performed to obtain the PK parameters using the PKPlus software package (Simulation Plus). The area under the plasma concentration-time curve (AUCint) is calculated from time 0 to infinity where the Cmax is the maximal concentration achieved in plasma and t112 is the terminal elimination half-life. Oral bioavailability was calculated as AUCorailAUC1v*100."}, "[2]": {"test": "Caco-2 permeability assay", "format": "in vitro ADME", "conditions": "human, read-out: Caco-2 efflux ratio B-A/A-B", "protocol": "In vitro ADMET studies were performed at Charles River Laboratory as outlined below. For the Caco-2 permeability assay, the cells were cultured (DMEM, 10% FBS, 1% L-Glutamax and 1% PenStrep) for 21 days. HBSS was used as the transport buffer and the TEER measurements were taken before the start of the assay. Compounds were added apical side to determine apical to basolateral transport (A-B) and basal side to determine basolateral to apical transport (B-A). Samples (10 μL) were collected at time 0 and 2 h and diluted (5×) with transport buffer. After the quenching reaction, the samples were further diluted in MilliQ water for bioanalysis. […] The analyte levels (peak area ratios) were measured on apical (A) and basolateral (B) sides at To and T2h-A-B and B-A fluxes were calculated averaging 3 individual measurements. Apparent permeability (Papp, cm/sec) was calculated as dQ (flux)/(dt*area*concentration). The efflux ratio was calculated by Papp(B-A)/Papp(B-A). […] The supernatant was diluted in water and further analyzed in LC/MS autosampler. Half-life (T1/2) was calculated by the formula 0.692/slope where slope is ln(% remaining relative to Tzero vs time). Intrinsic clearance was calculated using the (CLn1)=T112*1/initial concentration*mg prep/g liver*g liver/kg body weight. […]"}, "[3]": {"system": "ICl,SWELL", "conditions": "guinea-pig atrial cells, channel inhibitory concentrations ~5-10 μM; cited from earlier work"}, "[4]": {"system": "HFD-induced T2D mice", "test": "Metabolic phenotyping (fasting glucose, GTT, ITT) in HFD-fed T2D mice", "format": "in vivo", "conditions": "HFD-fed T2D C57 mice, 5 mg/kg/day p.o.", "protocol": "All compounds were dissolved in Kolliphor® EL (Sigma, #C5135). Either vehicle (Kolliphor® EL), SN-401 (DCPIB, 5 mg/kg of body weight/day, Tocris, D1540), SN-403, SN-406, SN-407 or SN071 were administered i.p. as indicated using 1 cc syringe/26G×½ inch needle daily for 4-10 days, and in one experiment, SN-401 was administered daily for 8 weeks. SN-401, formulated as above, was also administered by oral gavage at 5 mg/kg/day for 5 days using a 20G×1.5 inch reusable metal gavage needle.\nMice were fasted for 6 h prior to glucose tolerance tests (GTT). Baseline glucose levels at 0 min timepoint (fasting glucose, FG) were measured from blood sample collected from tail snipping using glucometer (Bayer Healthcare LLC). Either 1 g or 0.75 g D-Glucose/kg body weight were injected (i.p.) for lean or HFD mice, respectively and glucose levels were measured at 7, 15, 30, 60, 90 and 120 min timepoints after injection. […] Similar to GTTs, the baseline blood glucose levels were measured at 0 min timepoint and 15, 30, 60, 90 and 120 min timepoints post-injection (i.p.) of insulin (HumulinR, 1 U/kg body weight for lean mice or 1.25 U/kg body weight for HFD mice). […] The collected plasma was then measured for insulin content by using Ultra-Sensitive Mouse Insulin ELISA Kit (Crystal Chem, #90080). All mice and treatment groups were assessed blindly while performing experiments."}}}
{"smiles": "CCCCC1(C2CCCC2)Cc2cc(OCCCC(=O)O)c(Cl)c(Cl)c2C1=O", "note": "(centres unmarked) [SN-401, 4-((2-butyl-6,7-dichloro-2-cyclopentyl-1-oxo-2,3-dihydro-1H-inden-5-yl)oxy)butanoic acid]", "values": [{"measurement": "Plasma concentrations relative to ICl,SWELL inhibitory concentrations", "setting": "[1]; 5 mg/kg i.p. dosing", "result": "transiently approach"}, {"measurement": "Plasma concentrations relative to ICl,SWELL inhibitory concentrations", "setting": "[1]; 5 mg/kg p.o. dosing", "result": "remain well below"}, {"measurement": "efflux ratio at 2 h", "setting": "[2]", "result": 1.44}, {"measurement": "Selectivity for ICl,SWELL", "setting": "[3]", "result": "selective"}, {"measurement": "In vivo therapeutic efficacy after oral gavage", "setting": "[4]", "result": "fully retains"}]}
